Patent US6391545B1 (priority 1992, dated 2002)

By UniProt entry, the sequences of proteins in these tests, tags left out. Where a name states a change or a piece, a line headed by the entry shows the natural chain unless it says otherwise.
UniProt P27245: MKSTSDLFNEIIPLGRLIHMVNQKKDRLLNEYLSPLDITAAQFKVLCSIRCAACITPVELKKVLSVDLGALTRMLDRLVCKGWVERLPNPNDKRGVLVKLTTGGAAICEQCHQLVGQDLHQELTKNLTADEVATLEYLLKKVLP

Each compound was assayed against MarR (i.e., MBP-MarR144) to marO (Escherichia coli, UniProt P27245).
Format: binding

| SMILES | reversal of the binding of MarR (MBP-MarR144) to marO |
| --- | --- |
| CC1(C)S[C@@H]2[C@H](NC(=O)[C@H](N)c3ccccc3)C(=O)N2[C@H]1C(=O)O [ampicillin] | caused reversal of the binding |
| O=C(N[C@H](CO)[C@H](O)c1ccc([N+](=O)[O-])cc1)C(Cl)Cl [clm, chloramphenicol] | caused reversal of the binding |
| O=C(O)c1ccccc1O [salicylate] | caused reversal of the binding |
